Test results from PMC3871589, “Evaluation of STAT3 Signaling in ALDH+ and ALDH+/CD44+/CD24− Subpopulations of Breast Cancer Cells” (PLoS ONE, 2013).

Amino acid sequences for entries named in this document (tags omitted). A change or cut given only in a name is not applied to a line headed by its entry.
UniProt P42338: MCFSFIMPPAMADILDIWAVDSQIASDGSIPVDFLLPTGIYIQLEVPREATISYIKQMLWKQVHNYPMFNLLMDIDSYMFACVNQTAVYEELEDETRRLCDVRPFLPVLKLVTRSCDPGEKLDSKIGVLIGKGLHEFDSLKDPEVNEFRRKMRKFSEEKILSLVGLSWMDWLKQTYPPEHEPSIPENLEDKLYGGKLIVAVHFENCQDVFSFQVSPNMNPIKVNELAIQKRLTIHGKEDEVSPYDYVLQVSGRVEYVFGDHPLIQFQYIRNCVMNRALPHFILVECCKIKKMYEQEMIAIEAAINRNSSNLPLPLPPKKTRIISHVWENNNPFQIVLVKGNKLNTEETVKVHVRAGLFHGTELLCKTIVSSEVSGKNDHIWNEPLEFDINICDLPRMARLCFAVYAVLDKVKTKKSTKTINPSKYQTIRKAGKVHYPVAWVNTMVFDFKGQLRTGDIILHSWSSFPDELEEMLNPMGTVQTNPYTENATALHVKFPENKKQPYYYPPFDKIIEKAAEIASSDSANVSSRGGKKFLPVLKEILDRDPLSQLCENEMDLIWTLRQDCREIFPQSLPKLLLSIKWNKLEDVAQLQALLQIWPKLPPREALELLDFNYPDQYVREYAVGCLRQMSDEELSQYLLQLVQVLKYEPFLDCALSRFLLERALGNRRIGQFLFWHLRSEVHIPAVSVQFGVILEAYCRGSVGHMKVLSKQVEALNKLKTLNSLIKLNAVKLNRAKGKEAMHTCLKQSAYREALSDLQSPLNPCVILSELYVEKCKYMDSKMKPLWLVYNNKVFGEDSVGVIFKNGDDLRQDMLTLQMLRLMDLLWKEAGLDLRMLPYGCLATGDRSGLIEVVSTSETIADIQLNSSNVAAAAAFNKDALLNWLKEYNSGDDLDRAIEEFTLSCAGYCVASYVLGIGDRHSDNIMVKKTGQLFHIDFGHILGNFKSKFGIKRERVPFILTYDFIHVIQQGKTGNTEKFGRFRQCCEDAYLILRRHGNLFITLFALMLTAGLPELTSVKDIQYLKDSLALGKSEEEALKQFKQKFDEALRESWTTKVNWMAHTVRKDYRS

Biological target: PI3Kβ (Homo sapiens, UniProt P42338)
Test: Kinase profiler assay, PI3Kβ (positive control)
Assay type: biochemical
Procedure: The effects of LLL12 on twenty six purified human protein kinases were performed at the Millipore UK Limited (Dundee, UK) and Reaction Biology Corp. (Malvern, PA) using the Kinase profiler assay. Assays contained a peptide substrate, purified recombinant human protein kinases to be tested, and gamma-labeled ATP, magnesiumion. Radioactive phosphorylated product was measured and quantitated via a scintillation counter.

Compound: O=c1cc(N2CCOCC2)oc2c(-c3ccccc3)cccc12 [LY294002]
- IC50: 243 nM
